# Patent publication US7105575B2, “Methods for the treatment of neuro- disorders using aminothiol compounds” (Medimmune Oncology Inc., priority 1997, dated 2006)
# Assays:
# [1] = test system: cells; conditions: compounds incubated with cells one hour after cisplatin exposure; cited from earlier work
# [2] = test system: DNA of salmon sperm; conditions: compounds present concomitantly with cisplatin, in vitro; cited from earlier work
# [3] = test system: V79-B310H Chinese hamster cells; conditions: cited from earlier work
# [4] = cited from earlier work
# [5] = test system: cisplatin-induced renal failure; assay: Example 1 case study: amifostine given after cisplatin-induced renal failure; conditions: for overall clinical status (in words) / renal function (in words): amifostine 400 mg iv for 3 days; for renal function (in words): started after renal failure had developed
# [6] = test system: neurotoxicities / neuropathy
# [7] = test system: neurotoxicities; assay: Example 4 case study: amifostine in MDS patient with neurotoxicities from CHOP chemotherapy; assay type: in vivo, human
# [8] = test system: paclitaxel neuropathies and arthralgias/myalgias; conditions: pretreatment with amifostine, escalating doses of paclitaxel; cited from earlier work
# [9] = test system: severe neurotoxicities of right arm, leg pain; assay: Example 2 case study: amifostine for chemotherapy-induced neurotoxicities (carboplatinum, vinblastine, methotrexate); assay type: in vivo, human
# Source text: The patient who is a survivor of the concentration camps of World War II, was diagnosed with bladder cancer that had metastized to the lungs. They received 3 cycles carboplatinum, vinblastine and methotrexate. While in the concentration camp, the patient suffered damage to their lower legs which caused them constant pain.
# [10] = test system: cisplatin nephrotoxicity; conditions: amifostine given 30 minutes after cisplatin; cited from earlier work
# [11] = test system: cisplatin neuropathy; conditions: cited from earlier work
# [12] = paclitaxel 135 mg/m^2 iv day 1, cisplatin 100 mg/m^2 intraperitoneally day 2, before amifostine
# [13] = 500 mg amifostine over 10 minutes
smiles,measurement,setting,value
"NCCCNCCS [WR-1065, S-2-(3-aminopropylamino) ethanethiol]",protection from cytostatic effect of cisplatin,[1],neither WR-1065 nor WR-2721 (amifostine) could protect cells
same,"platination of salmon sperm DNA, co-incubation",[2],caused a decrease in the platination
same,protection against cis-DDP cytotoxicity,"[3]; administered before, during and immediately after cisplatin treatment",protects against cytotoxicity
same,protection during versus immediately following cisplatin exposure,[3],little if any difference in the magnitude of protection
same,timing of maximum protection,[3]; presence in cell growth medium relative to cisplatin exposure,maximum protection was obtained when WR-1065 was present in the cell growth medium for 30 minutes prior to exposure
"N.N.[Cl][Pt][Cl] [cisplatin, cis-diamminedichloroplatinum]",potential permanent loss of normal renal function,[4]; nephrotoxicity produced by drugs such as cisplatin (Kemp 1996),≥ 50%
same,patients with myelosuppression,[4]; patients treated with cisplatin,25–30%
same,maximum serum creatinine level after administration of cisplatin (FIG. 1),"[5]; FIG. 1, starting level about 1.0 mg/dL",about 5.5 mg/dL
same,BUN by hospital day 5 after chemotherapy,[5]; [12],39 mg/dL
same,serum creatinine by hospital day 5 after chemotherapy,[5]; [12],4.9 mg/dL
"NCCCNCCSP(=O)(O)O [amifostine, S-2-(3-aminopropylamino)ethyl dihydrogen phosphorothioate]",neuropathy one month after termination,[6]; after four amifostine treatments,neuropathy remained stable
same,tolerability of first infusion,"[6]; person, amifostine 970 mg in 50 cc saline over 10 minutes, premedicated with Zofran and Decadron",tolerated this treatment without problems
same,general status on continued treatment,[7]; continues on Ethyol for MDS,doing well
same,"neurotoxicities, patient statement after five weeks","[7]; person, Ethyol 840 mg Monday, Wednesday, Friday each week, neurotoxicities for eight years after CHOP",neurotoxicities were better since receiving amifostine
same,protection from cytostatic effect of cisplatin,[1],neither WR-1065 nor WR-2721 (amifostine) could protect cells
same,tolerated paclitaxel dose,[8],allowed both higher single doses and cumulative doses of paclitaxel to be administered without the occurrence of dose limiting neuropathies and arthralgias/myalgias
same,"platination of salmon sperm DNA, co-incubation",[2],caused a decrease in the platination
same,serum creatinine level following treatment with amifostine (FIG. 1),"[5]; FIG. 1, start about 1.0, maximum about 5.5 mg/dL after cisplatin",about 2.8 mg/dL
same,creatinine at further amifostine dose after follow-up clinic visit,"[5]; about 8 days after second discharge, when amifostine 400 mg iv was given again",2.5 mg/dL
same,serum creatinine by hospital day 12 / discharge day 13,"[5]; after 3 days of amifostine 400 mg iv, peak 6.0 mg/dL before amifostine",2.8 mg/dL
same,serum creatinine approximately 6 months later,"[5]; after final 2-week course of amifostine 400 mg, 5 doses",2.0 mg/dL
same,overall clinical status (in words),[5],improvement in their overall clinical status
same,renal function (in words),[5],partial recovery of their renal function
same,renal function (in words),[5]; listed as Amifostine,partially reversed the toxic renal effects of cisplatin
same,overall clinical status (in words),[5]; listed as Amifostine,overall clinical status improved
same,tolerability,"[5]; amifostine 400 mg per day iv on post-cisplatin days 7, 8, 9","tolerated therapy well, with only mild nausea"
same,serum creatinine on day 3 of amifostine therapy,"[5]; patient, amifostine 400 mg per day iv on post-cisplatin days 7, 8, 9, peak 6.0 mg/dL before amifostine",4.6 mg/dL
same,renal function during readmission (in words),"[5]; readmission, 5 days, amifostine 400 mg iv on hospital day 2",renal function stabilized
same,tolerability,"[5]; readmission, amifostine 400 mg iv once on hospital day 2, ondansetron 24 mg as needed",tolerated the treatment well
same,leg pain two days after infusion,[9]; [13],the pain in their legs was getting better
same,walking ability two days after infusion,[9]; [13],able to walk without their cane
same,pain reported two days after infusion,"[9]; person, 500 mg amifostine in 50 cc saline over 10 minutes",no pain for the first time in months
same,arm pain after subsequent infusions,[9]; subsequent Ethyol infusions,remained without arm pain
same,leg pain after subsequent infusions,[9]; subsequent Ethyol infusions,The pain in their legs has improved
same,analgesic need (Duragesic patches),"[9]; subsequent Ethyol infusions, before: 2 patches of 100 mcg/hr",managing with only one Duragesic Patch
same,protection from nephrotoxicity,[10],did not protect mice at all from nephrotoxicity
same,incidence of cisplatin neuropathies,"[11]; pretreatment with amifostine, prospective evaluation (Mollman 1988)",significantly lower incidence of cisplatin neuropathies
same,occurrence and severity of cisplatin neuropathy,"[11]; pretreatment, randomized trial cisplatin and cyclophosphamide±amifostine, advanced ovarian cancer (Kemp 1996)",significantly reduce the occurrence and severity of cisplatin neuropathy
NCCCNCCSSCCNCCCN [WR-33278],"platination of salmon sperm DNA, co-incubation",[2],caused a decrease in the platination
